Data published in patent publication US20040176294A1 (published 2004).

Chains of the proteins cited; added tags and fusions are not shown. Residues count along the entry.
UniProt P16473, 21-764: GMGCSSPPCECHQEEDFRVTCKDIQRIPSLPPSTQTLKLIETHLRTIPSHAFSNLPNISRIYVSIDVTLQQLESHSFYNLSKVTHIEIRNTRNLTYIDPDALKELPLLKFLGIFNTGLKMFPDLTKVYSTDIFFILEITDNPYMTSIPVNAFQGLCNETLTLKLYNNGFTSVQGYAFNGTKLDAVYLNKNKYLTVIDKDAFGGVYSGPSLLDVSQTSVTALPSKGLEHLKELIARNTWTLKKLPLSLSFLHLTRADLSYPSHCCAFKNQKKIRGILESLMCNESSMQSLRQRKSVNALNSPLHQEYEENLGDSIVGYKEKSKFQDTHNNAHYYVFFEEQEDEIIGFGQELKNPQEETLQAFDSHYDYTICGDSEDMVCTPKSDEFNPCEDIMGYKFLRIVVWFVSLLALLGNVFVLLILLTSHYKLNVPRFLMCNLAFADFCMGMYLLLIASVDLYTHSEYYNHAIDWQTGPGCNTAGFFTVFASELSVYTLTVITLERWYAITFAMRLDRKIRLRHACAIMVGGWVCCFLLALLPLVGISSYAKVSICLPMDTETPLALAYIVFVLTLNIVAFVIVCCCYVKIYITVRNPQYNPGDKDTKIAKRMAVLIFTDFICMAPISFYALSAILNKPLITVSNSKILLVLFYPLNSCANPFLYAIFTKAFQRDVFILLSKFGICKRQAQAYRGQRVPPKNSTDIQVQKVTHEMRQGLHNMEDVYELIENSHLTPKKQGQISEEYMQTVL
UniProt P47750, 22-764: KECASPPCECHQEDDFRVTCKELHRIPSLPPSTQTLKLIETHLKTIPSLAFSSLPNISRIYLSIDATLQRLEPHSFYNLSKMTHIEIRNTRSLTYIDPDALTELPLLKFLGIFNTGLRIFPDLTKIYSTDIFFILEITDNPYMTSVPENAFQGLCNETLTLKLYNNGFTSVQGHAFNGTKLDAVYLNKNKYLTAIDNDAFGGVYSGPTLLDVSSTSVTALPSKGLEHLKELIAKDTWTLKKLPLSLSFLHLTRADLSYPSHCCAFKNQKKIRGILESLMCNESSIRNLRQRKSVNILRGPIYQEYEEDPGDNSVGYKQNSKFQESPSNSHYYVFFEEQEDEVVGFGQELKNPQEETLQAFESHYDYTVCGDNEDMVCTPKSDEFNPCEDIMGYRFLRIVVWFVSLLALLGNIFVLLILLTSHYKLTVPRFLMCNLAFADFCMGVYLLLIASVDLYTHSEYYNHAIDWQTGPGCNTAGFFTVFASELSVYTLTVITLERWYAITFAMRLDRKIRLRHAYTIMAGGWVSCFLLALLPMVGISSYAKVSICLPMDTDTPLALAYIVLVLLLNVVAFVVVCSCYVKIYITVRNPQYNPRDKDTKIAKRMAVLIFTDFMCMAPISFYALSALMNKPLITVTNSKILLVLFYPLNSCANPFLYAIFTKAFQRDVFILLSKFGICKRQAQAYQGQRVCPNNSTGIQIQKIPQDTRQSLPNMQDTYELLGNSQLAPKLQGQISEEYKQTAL

Tests used:
[1] = molecular target: TSH receptor on primary human adipocytes (human, UniProt P16473 21-764); test: cell-based or functional assay
[2] = molecular target: TSH receptor on differentiated murine 3T3 L1 adipocytes (murine, UniProt P47750 22-764); test: cell-based or functional assay

- induction of the reporter gene (CRE-driven luciferase reporter, primary human adipocytes) [1]: 20 fold
- induction of luciferase expression (CRE-driven luciferase reporter, differentiated 3T3 L1 adipocytes) [2]: 24 fold
B1: thyroid-stimulating hormone (TSH) (ligand)
chain 1: not shown
chain 2: FCIPTEYTMHIERRECAYCLTINTTICAGYCMTRDINGKLFLPKYALSQDVCTYRDFIYRTVEIPGCPLHVAPYFSYPVALSCKCGKCNTDYSDCIHEAIKTNYCTKPQKSY
